Target: recombinant His-tagged human carbonic anhydrase 9 (human, UniProt Q16790 38-414)
Assay: binding of the purified clone to CA9 (FIG. 14A); method not stated

- fold higher affinity than the Fn not conjugated to AAZ: 10 fold
B1: Fn-AAZ clone 0.3.10 (fibronectin type III domain of SEQ ID NO: 3 conjugated to acetazolamide) (designed binder)
chain: MASSSDSPRNLEVTNATPNSLTISWDSYLDCAYYYRITYGETGGNSPSQEFTVPGYTNSVTISGLKPGQDYTITVYAVASSNDVSNPISINYRTEIDKPSQGS
modifications: acetazolamide (AAZ) conjugated through a maleimide-PEG linker to the single cysteine; PEG length not stated for this clone
notes: Expressed and purified clone, conjugated with maleimide-PEG-AAZ; also called first Fn-AAZ clone; first Fn-AAZ conjugate
